Results reported in the Kinase Knowledgebase extract (Sharma et al. 2016).

Sequences of proteins named here, by UniProt entry; tags and fusion partners are left off.
UniProt P00533, whole entry, looked up: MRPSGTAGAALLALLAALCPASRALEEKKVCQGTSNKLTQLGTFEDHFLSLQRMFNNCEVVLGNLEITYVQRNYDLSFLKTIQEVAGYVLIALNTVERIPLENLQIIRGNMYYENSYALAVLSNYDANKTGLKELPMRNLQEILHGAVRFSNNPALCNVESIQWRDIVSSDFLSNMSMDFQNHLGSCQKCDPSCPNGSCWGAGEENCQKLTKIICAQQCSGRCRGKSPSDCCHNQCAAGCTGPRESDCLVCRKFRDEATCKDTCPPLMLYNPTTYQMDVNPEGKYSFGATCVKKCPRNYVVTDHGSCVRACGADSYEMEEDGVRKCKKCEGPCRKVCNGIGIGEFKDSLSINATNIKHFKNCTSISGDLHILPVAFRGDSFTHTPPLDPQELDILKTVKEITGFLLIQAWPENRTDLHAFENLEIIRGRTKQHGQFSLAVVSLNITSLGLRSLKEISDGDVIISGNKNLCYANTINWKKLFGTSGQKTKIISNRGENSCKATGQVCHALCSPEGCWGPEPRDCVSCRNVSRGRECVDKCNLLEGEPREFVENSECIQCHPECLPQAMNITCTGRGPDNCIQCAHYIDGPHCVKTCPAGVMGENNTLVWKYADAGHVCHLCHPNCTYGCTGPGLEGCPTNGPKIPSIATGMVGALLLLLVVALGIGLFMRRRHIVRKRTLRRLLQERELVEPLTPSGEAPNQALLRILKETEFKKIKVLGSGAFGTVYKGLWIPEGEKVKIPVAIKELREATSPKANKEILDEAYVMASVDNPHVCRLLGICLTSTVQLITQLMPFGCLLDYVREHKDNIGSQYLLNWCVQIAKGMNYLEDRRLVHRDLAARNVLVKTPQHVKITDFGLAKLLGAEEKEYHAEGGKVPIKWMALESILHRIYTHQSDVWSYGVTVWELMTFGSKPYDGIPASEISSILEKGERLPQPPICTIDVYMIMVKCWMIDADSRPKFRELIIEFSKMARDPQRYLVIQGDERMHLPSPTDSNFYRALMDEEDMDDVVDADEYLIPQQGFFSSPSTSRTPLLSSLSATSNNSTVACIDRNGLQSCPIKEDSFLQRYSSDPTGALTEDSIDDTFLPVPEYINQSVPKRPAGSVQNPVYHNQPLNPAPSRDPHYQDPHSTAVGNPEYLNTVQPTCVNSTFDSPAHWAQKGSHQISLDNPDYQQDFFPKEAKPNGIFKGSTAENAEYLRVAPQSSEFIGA

Each compound was assayed against EGFR (human) (UniProt P00533). Conditions: bt474.

SMILES	IC50
CCOc1cc2ncnc(Nc3ccc(F)c(Cl)c3)c2cc1NC(=O)/C=C/CN1CC[C@H]1COC	7.8 nM
COC[C@@H]1CCN1C/C=C/C(=O)Nc1cc2c(Nc3ccc(F)c(Cl)c3)ncnc2cc1OC[C@H]1COCCO1	25 nM
COC[C@H]1CCN1C/C=C/C(=O)Nc1cc2c(Nc3ccc(F)c(Cl)c3)ncnc2cc1OC[C@H]1COCCO1	2.9 nM
COC[C@@H]1CCN1C/C=C/C(=O)Nc1cc2c(Nc3ccc(F)c(Cl)c3)ncnc2cc1OC[C@H]1[C@@H]2COC[C@@H]21	22.2 nM

Next, values leading:

IC50	SMILES
4.8 nM	COCC1CCN1C/C=C/C(=O)Nc1cc2c(Nc3ccc(F)c(Cl)c3)ncnc2cc1OC[C@@H]1COCCO1 (stereo partly specified)
2.9 nM	COC[C@H]1CCN1C/C=C/C(=O)Nc1cc2c(Nc3ccc(F)c(Cl)c3)ncnc2cc1OC[C@H]1[C@@H]2COC[C@@H]21
